# According to US10814010B2, “FOXC2 inhibitor and methods of use thereof” (The Board of Regents of The University of Texas System, priority 2018, dated 2020):
# pEC50: −log10 of the molar value.
# System: PC3 cells
# Test: Co-treatment MTT assay, PC3
# Conditions: Homo sapiens, PC-3, 24 h, read-out: EC50 of docetaxel in co-treatment with MC-1-F2
structure (smiles),measurement,value
"CC(=O)O[C@@]12CO[C@@H]1C[C@H](O)[C@@]1(C)C(=O)[C@H](O)C3=C(C)[C@@H](OC(=O)[C@H](O)[C@@H](NC(=O)OC(C)(C)C)c4ccccc4)C[C@@](O)([C@@H](OC(=O)c4ccccc4)[C@H]21)C3(C)C [docetaxel, reference compound]",pEC50,9.58
